{"source": "patent US20230003721A1", "about": "“MITOTHERAPEUTICS FOR THE TREATMENT OF BRAIN DISORDERS” (The University of Florida Research Foundation, Inc., priority 2019, published 2023)", "key": {"[1]": {"tested_on": "C57BL/6J mice", "assay": "Respiration of brain mitochondria isolated from mice given compound in drinking water", "format": "in vivo, mouse", "conditions": "5 mg/kg in water, 7 months, Complex I and II substrates", "method": "For respiration experiments using isolated mitochondria, C57BL/6J mice were grouped to receive 25 mg/kg dyclonine-supplemented or standard water for 7 months starting at 2 months of age. The water supply was refreshed weekly. Mice were housed on a 12 h: 12 h light dark cycle with ad libitum access to food and water. All experiments were performed during the light part of the diurnal cycle. Housing, animal care and experimental procedures were consistent with the Guide for the Care and Use of Laboratory Animals and approved by the Institutional Animal Care and Use Committee of The Scripps Research Institute.\nWhole brains were harvested from 2 mice/group of 9-month old C57BL/6J mice receiving 25 mg/kg dyclonine-supplemented or standard water for 7 months. […] The yield of mitochondrial protein was determined by BCA assay.\nFor OCR measurements of isolated brain mitochondria, the mitochondria were diluted to 3 μg/20 μl in cold MAS-BSA buffer+substrate (pyruvate/malate or succinate, to maintain healthy state of mitochondria) and plated onto 96-well PDL-coated plates (20 μl/well). […] State 3 respiration parameters driven by mitochondrial Complex I substrates (pyruvate/malate) were measured first, while Complex II-driven respiration (succinate) was measured by inhibiting Complex I with rotenone (2 μM). OCR was calculated by the Seahorse XF96 software package. […]"}, "[2]": {"tested_on": "primary neurons", "assay": "Oxygen consumption rate (OCR) of permeabilized primary neurons", "format": "cell-based, mouse", "method": "Respiration of isolated mitochondria. The oxygen consumption rate (OCR) of permeabilized neurons and isolated brain mitochondria (from 9-month old mice) was measured by the XF96 Extracellular Flux analyzer (Seahorse Bioscience). For assays using cultured neurons, primary neurons were dissociated from the forebrains of P0 pups, seeded at 1.9×10^4/well (PDL-coated XF96 plate), cultured to DIV13 and incubated with dyclonine or DMSO (0.1%) for 24 hours. Prior to the start of the OCR measurement, all but 30 μl of Neurobasal A/B27 culture medium was removed from each well. Cells were washed twice with pre-warmed MAS-BSA assay medium (4 mg/ml fatty-acid free BSA, pH=7.2) and incubated in 180 μl at 37° C. for 5 min. Following the cartridge calibration, cells were loaded into the XF96 Extracellular Flux analyzer and further equilibrated for 10 min with two cycles of 3 min mixing and 2 min resting prior to the first measurement of basal respiration. OCR were measured at 37° C. under basal conditions followed by the sequential injection of pre-warmed 10× mitochondrial substrates/ADP (20 μl), oligomycin (22 μl), FCCP (24 μl), and rotenone/antimycin A (26 μl). The final concentrations of injected compounds were as follows: 10 mM mitochondrial substrates (pyruvate/malate or succinate), 1 mM ADP, 1.5 μM oligomycin, 3 μM FCCP, 2 μM rotenone/antimycin A. Saponin (25 μg/ml) was co-injected with substrate/ADP to permeabilize the cells and stimulate ADP-dependent respiration. Two baseline measurements were obtained prior to any injection and 2 response measurements were collected after each injection except for after FCCP addition which consisted of 1 measurement (9 total measurements in each assay). Each measurement cycle consisted of 2 min mixing, 2 min waiting, and 3 min data acquisition. This protocol allowed for sequential assessment of basal cell respiration, maximal mitochondrial respiratory capacity (State 3 with substrate/ADP), proton leak (State 4o with oligomycin), uncoupled maximal respiration (State 3U with FCCP) and non-mitochondrial respiration with the Complex I/Complex III inhibitors, rotenone/antimycin A. Cells were washed twice with MAS buffer to remove residue BSA contained in the assay medium, lysed in 50 μl lysis buffer (25 mM HEPES, 1 mM EGTA, 1 mM EDTA, 0.1% SDS, 1% NP-40, 1× protease and phosphatase inhibitor, pH 7.0 adjusted with NaOH) and total protein was determined by BCA assay. Oxygen consumption was normalized to total protein content as pmol O2/min/ug total protein.\nMeasurement of mitochondrial O2 consumption. […] OCR and ECAR were measured at 37° C. under basal conditions followed by the sequential injection of pre-warmed 10× mitochondrial substrates/ADP (20 μl), oligomycin (22 μl), FCCP (24 μl), and rotenone/antimycin A (26 μl). […]"}}, "note": "Counter-ions that a name gives are not always drawn."}
{"compound": "COC(=O)[C@@H]1[C@H]2C[C@H]3c4[nH]c5ccccc5c4CCN3C[C@@H]2CC[C@@H]1O", "note": "[YOHIMBINE HYDROCHLORIDE]", "values": [{"measurement": "Respiratory Control Ratio (RCR, State 3/4o)", "setting": "[1]", "result": "significantly increased"}, {"measurement": "basal rate of respiration", "setting": "[2]; 10 μM, 24 h", "result": "weak, non-significant, but consistent trend towards an increased basal rate of respiration"}, {"measurement": "State 3 and 3u respiration stimulated by either Complex I or Complex II substrates", "setting": "[2]; 10 μM, 24 h, cultured neurons", "result": "significant increase"}, {"measurement": "Respiratory Control Ratio (RCR, State 3/4o)", "setting": "[2]; mitochondria from cultured neurons, Complex I and II substrates", "result": "significantly increased"}, {"measurement": "OCR", "setting": "[2]; oxygen consumption rate, significant change", "result": "increased"}]}
